Source: US20130230562

B1: caspase-3 (NCBI accession no: NP-004337.2), human, purchased from R&D Systems (protein)
chain: SGISLDNSYKMDYPEMGLCIIINNKNFHKSTGMTSRSGTDVDAANLRETFRNLKYEVRNKNDLTREEIVELMRDVSKEDHSKRSSFVCVLLSHGEEGIIFGTNGPVDLKKITNFFRGDRCRSLTGKPKLFIIQACRGTELDCGIETDSGVDDDMACHKIPVEADFLYAYSTAPGYYSWRNSKDGSWFIQSLCAMLKQYADKLEFMHILTRVNRKVATEFESFSFDATFHAKKQIPCIVSMLTKELYFYH
B2: caspase-7 (NCBI accession no: NP-001218.1), human, purchased from R&D Systems (protein)
chain: AKPDRSSFVPSLFSKKKKNVTMRSIKTTRDRVPTYQYNMNFEKLGKCIIINNKNFDKVTGMGVRNGTDKDAEALFKCFRSLGFDVIVYNDCSCAKMQDLLKKASEEDHTNAACFACILLSHGEENVIYGKDGVTPIKDLTAHFRGDRCKTLLEKPKLFFIQACRGTELDDGIQADSGPINDTDANPRYKIPVEADFLFAYSTVPGYYSWRSPGRGSWFVQALCSILEEHGKDLEIMQILTRVNDRVARHFESQSDDPHFHEKKQIPCVVSMLTKELYFSQ

Target: ApoHsp (cage protein formed by the fusion protein of Hsp, DEVD motif and histidine polymer, labelled with Cy5.5 and BHQ3)

Protein	fluorescence signal (Cy5.5 dequenching after cleavage, 96-well plate, 37 C, 2 hours)
B1	about 7 times greater fluorescence signal compared to an extinction condition
B2	ApoHsp in a reaction with caspase-7 showed about 4 times greater fluorescence signal
